SMILES strings stand for the structures. The list shows a part of the results, in another mix than the full data. Some structures show a salt or complex split into parts, the way the source records it. Activity calls are given as the source filed them.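 The calls were made as follows: active = mean inhibition over replicate wells above about 20% (limit read from the data); inactive = the rest.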

By UniProt entry, the sequences of proteins in these tests, tags left out.
UniProt Q9Y5K5, whole entry: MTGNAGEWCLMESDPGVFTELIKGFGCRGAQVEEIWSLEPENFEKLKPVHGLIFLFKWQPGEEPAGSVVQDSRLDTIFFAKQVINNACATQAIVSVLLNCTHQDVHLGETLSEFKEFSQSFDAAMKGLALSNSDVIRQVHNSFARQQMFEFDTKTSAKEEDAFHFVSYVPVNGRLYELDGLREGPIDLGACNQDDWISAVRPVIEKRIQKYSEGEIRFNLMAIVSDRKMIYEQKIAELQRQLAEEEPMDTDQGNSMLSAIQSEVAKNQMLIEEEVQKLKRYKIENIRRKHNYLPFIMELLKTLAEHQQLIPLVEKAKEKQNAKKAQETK

This assay addresses Ubiquitin carboxyl-terminal hydrolase isozyme L5 (Homo sapiens) (UniProt Q9Y5K5). Put plainly: proteasome-bound UCH37 DUB activity blockers – biochemical, Ub-AMC cleavage, fluorescence, primary screen (AID 588478).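 Also: 0% = compound-free wells with enzyme and 100% = wells lacking proteasome.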 The note with it: purified proteasome/UCH37, Ub-AMC cleavage fluorescence; hits give high values; concentration not given here. The gist of the method: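 Assay system: Proteasome-bound UCH37. Buffer or medium: pH 7.4 Tris-HCl (50 mM) with ovalbumin, ATP-MgCl2, DTT. Incubation: 30 min preincubation with enzyme, 25 min cleavage at room temperature. Measured by: fluorescence, ex 355 nm, em 460 nm. Read-out basis: percent inhibition. Control set: wells without proteasome as full block, compound-free enzyme plus substrate as uninhibited.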
Take `Cc1ccccc1NP(C)(=O)Nc1ccccc1C`: the inhibition was inactive: 5.15%. Take `CP(=O)(Nc1ccc2c(c1)OCCO2)Oc1ccccc1` (stereo not drawn): the inhibition was inactive: 0.652%.

`c1nnnn1CCn1cnnn1`: the inhibition is inactive: -2.5%. Take `CCOP(C)(=S)SCC(=O)NC(C)(CC)C(=O)O` (stereo not drawn): the inhibition was inactive: 5.07%. Regarding `O=P(Nc1nccs1)(c1ccccc1)c1ccccc1`, the inhibition was inactive: -0.697%. Then `CC(C)C(=O)NC(Sc1ccccc1)C(Cl)(Cl)Cl` (stereo not drawn), with inactive: 3.91%; and `CCNC(=S)N=C(N)N[N+](=O)[O-]`, with inactive: 3.96%; and `CP(=O)(Nc1ccc(SC(F)(F)F)cc1)Oc1ccc(F)cc1` (stereo not drawn), with inactive: 6.22%. In the case of `O=C(OC1CN2CCC1CC2)c1cccc(Cl)c1` (stereo not drawn), the inhibition is inactive: 5.82%. With `O=[N+]([O-])c1ccc(O)c(C=NNc2ccc([N+](=O)[O-])cc2[N+](=O)[O-])c1`, the inhibition was inactive: 11.4%. `Cc1c(C(c2ccc3c(c2)OCO3)c2c(C)n(C)n(-c3ccccc3)c2=O)c(=O)n(-c2ccccc2)n1C.O=[N+]([O-])c1cc([N+](=O)[O-])c(O)c([N+](=O)[O-])c1`: the inhibition was inactive: 4.65%. On to `Nc1ccc([As](=O)(O)c2ccc([N+](=O)[O-])cc2)cc1`, for which the inhibition was inactive: 0.902%.

As for `C(Cc1nn[nH]n1)Cc1nn[nH]n1`, the inhibition is inactive: 2.54%.

In the case of `O=[As](O)(c1ccccc1)c1ccc(O)cc1`, the inhibition is inactive: 1.99%. `Cc1cc(-c2cccc3ccccc23)c(C)cn1.O=[N+]([O-])c1cc([N+](=O)[O-])c(O)c([N+](=O)[O-])c1`: the inhibition is inactive: 13.7%. Take `O=[N+]([O-])c1cc([N+](=O)[O-])c(NCC2CCS(=O)(=O)C2)c([N+](=O)[O-])c1` (stereo not drawn): the inhibition was inactive: 4.91%.

`O=[N+]([O-])c1ccc(OP2(=O)COCCO2)cc1` (stereo not drawn): the inhibition was inactive: 2.22%. As to `CC(=O)NC(SC(=S)N(C)C)C(Cl)(Cl)Cl` (stereo not drawn), the inhibition was inactive: 0.316%. As for `O=[N+]([O-])c1ncn(CCn2cnc([N+](=O)[O-])n2)n1`, the inhibition is inactive: 4.99%. For `COc1ccc(NP(C)(=O)Oc2ccccc2OC)cc1` (stereo not drawn), the inhibition was inactive: 5.92%. For the compound `O=P(Nc1nc2ccccc2s1)(c1ccccc1)c1ccccc1`, the inhibition is inactive: 4.42%. In the case of `CCN(C(=NP(=O)(N1CCOCC1)N1CCOCC1)N1CCOCC1)c1ccc(OC)cc1`, the inhibition was inactive: 0.607%. `C[C@H]1OP(=O)(Oc2ccccc2)[C@H](O)[C@H](O)[C@H]1N=[N+]=[N-]` (stereo partly drawn): the inhibition was inactive: -0.258%. In the case of `C=CCN1CCN(CCOC(=O)C(O)(c2ccccc2)c2ccccc2)CC1`, the inhibition was inactive: 4.57%. With `CN(C)C1(CNC(=O)c2ccc(Cl)c(S(N)(=O)=O)c2)CCCCC1`, the inhibition was inactive: 3.17%. As for `O=P(Nc1ccccn1)(c1ccc(Br)cc1)c1ccc(Br)cc1`, the inhibition was inactive: -1.53%.

For `COc1ccc(OP(C)(=O)Nc2cccc(Br)c2)cc1` (stereo not drawn), the inhibition was inactive: 0.372%.

Turning to `CC(C)C=NN=C(N)N[N+](=O)[O-]`, the inhibition is inactive: 3.61%. With `COc1ccc(N)c([N+](=O)[O-])c1[N+](=O)[O-]` the figure was inactive: 7.97%; with `Cc1ccccc1OP(=O)(Nc1ccccn1)Oc1ccccc1C`, inactive: -0.881%; with `CC(NC(=O)COC(=O)C(O)(c1ccccc1)c1ccccc1)c1ccccc1` (stereo not drawn), inactive: -2.71%. As for `CN(C)C(=O)Oc1noc2ccccc12`, the inhibition was inactive: 6.28%. Then `O=[N+]([O-])c1cc([N+](=O)[O-])c(OC2CCCCC2O)c([N+](=O)[O-])c1` (stereo not drawn), with inactive: 13.5%. Then `O=c1c2cc([N+](=O)[O-])ccc2[nH]c2c([N+](=O)[O-])cc([N+](=O)[O-])cc12`, with inactive: 11.4%; and `CP(=O)(Nc1ccccc1)Oc1ccc(F)cc1` (stereo not drawn), with inactive: 3.03%. Take `O=C(OC1CN2CCC1CC2)c1ccccc1` (stereo not drawn): the inhibition is inactive: 0.921%. Then `CCC(=O)N1C2C3N(C(=O)CC)C1C1N(C(=O)CC)C(C(N1C(=O)CC)N3C(=O)CC)N2C(=O)CC`, with inactive: 4.09%; and `CCN(CC)CCCOC(=O)C(O)(c1ccccc1)C1CCCCC1` (stereo not drawn), with inactive: 5.82%; and `COC(=O)c1cc2c(s1)N=C(c1ccccc1)N(C)P2(=O)N1CCOCC1` (stereo not drawn), with inactive: 5.98%.

On to `Cc1c([N+](=O)[O-])cc([N+](=O)[O-])c(Br)c1[N+](=O)[O-]`, for which the inhibition was inactive: 11.9%.

On to `CC(=O)NC(SC(=S)N(CC(C)C)CC(C)C)C(Cl)(Cl)Cl` (stereo not drawn), for which the inhibition was inactive: 1.84%.

For `Cc1ccc(OP(=O)(Nc2ccccn2)Oc2ccc(C)cc2)cc1`, the inhibition is inactive: 3.03%. Then `COc1ccc(OP(C)(=O)Nc2ccc(SC(F)(F)F)cc2)cc1` (stereo not drawn), with inactive: 5.26%.

For the compound `O=P1(N(CCCl)CCCl)OCCC2CCCCN21` (stereo not drawn), the inhibition is inactive: 4.2%. With `CCOC(=O)c1ccc(NP(C)(=O)Oc2ccc(F)cc2)cc1` (stereo not drawn) the figure was inactive: 3.61%. `c1ccc(-c2nn[nH]n2)c(-c2nn[nH]n2)c1`: the inhibition was inactive: -1.92%. `Cc1ccc(NP(=O)(Oc2cccc(C)c2)Oc2cccc(C)c2)nc1`: the inhibition was inactive: 2.56%. On to `O=C(NC1CCS(=O)(=O)C1)NP(=S)(Oc1ccccc1)Oc1ccccc1` (stereo not drawn), for which the inhibition was inactive: 0.976%. Then `COc1ccc2c(c1O)-c1c(O)c(OC)cc3c1[C@H](C2)[N+](C)(C)CC3.O=[N+]([O-])c1cc([N+](=O)[O-])c([O-])c([N+](=O)[O-])c1[O-]`, with inactive: -66.8%. Regarding `CC(=O)Nc1ccc([As](=O)(O)O)c(O)c1`, the inhibition is inactive: 1.99%. As for `O=C(OCCN1CCN(CCOCc2ccccc2)CC1)C(O)(c1ccccc1)c1ccccc1`, the inhibition is inactive: 0.711%. Then `Cc1ccccc1CN(C)C(=O)COC(=O)C(O)(c1ccccc1)c1ccccc1`, with inactive: 3.37%. `C[C@@H]1C=CCP(=O)(Oc2ccccc2)O1` (stereo partly drawn): the inhibition is inactive: -0.391%. With `C[C@H]1OP(=O)(Oc2ccccc2)C[C@@H]2O[C@@H]21` (stereo partly drawn) the figure was inactive: -1.51%; with `NC(=NO)c1c(N)no[n+]1[O-]`, inactive: 0.589%. `CC(=O)c1ccc(N2CC2c2ccncc2)cc1` (stereo not drawn): the inhibition is inactive: 4.38%. For the compound `O=C(OC1CN2CCC1CC2)c1ccc([N+](=O)[O-])cc1` (stereo not drawn), the inhibition was inactive: 6%. In the case of `CC(C)(C)C(=O)NC(Sc1ccccc1)C(Cl)(Cl)Cl` (stereo not drawn), the inhibition is inactive: 2.97%. Take `CCc1cc(O)c([N+](=O)[O-])c(C)c1[N+](=O)[O-]`: the inhibition is inactive: 2.83%.

Regarding `CP(=O)(Nc1ccccc1F)Oc1ccccc1` (stereo not drawn), the inhibition is inactive: 3.04%.

Consider `O=P1(Nc2nc3ccc(Cl)cc3s2)COc2ccccc2O1` (stereo not drawn), for which the inhibition was inactive: -0.543%. For the compound `CCOc1ccc(C2=NCC(CBr)S2)cc1` (stereo not drawn), the inhibition was inactive: 8.4%.

Consider `CCc1ccc(OP(C)(=O)O)cc1`, for which the inhibition was inactive: 8.94%. As to `CP(=O)(Nc1ccccn1)Oc1ccccc1` (stereo not drawn), the inhibition is inactive: 0.577%. `COc1ccccc1OP(C)(=O)Nc1ccc(C)cc1C` (stereo not drawn): the inhibition is inactive: 0.643%. As to `Oc1ccccc1CNc1ccccn1`, the inhibition is inactive: 0.583%. For `O=C(NC(Sc1ccncn1)C(Cl)(Cl)Cl)c1ccccc1` (stereo not drawn), the inhibition is inactive: -5.36%. With `O=[N+]([O-])c1cc([N+](=O)[O-])c(Nc2ccccn2)c([N+](=O)[O-])c1` the figure was inactive: 12.3%; with `CC(C)CC(=O)NC(Sc1ccc(Cl)cc1)C(Cl)(Cl)Cl` (stereo not drawn), inactive: 2.04%; with `Nc1cc(N)c2nonc2c1[N+](=O)[O-]`, inactive: 12.8%. Then `Cc1c(NP(C)(=O)Oc2ccc(C(C)C)cc2)c(=O)n(-c2ccccc2)n1C` (stereo not drawn), with inactive: 5.03%; and `CN(C)CCOC(=O)C(O)(c1ccccc1)C1CCCC1` (stereo not drawn), with inactive: 1.29%. With `Clc1ccc(Cl)c(NC2=NCC(CBr)S2)c1` (stereo not drawn), the inhibition was inactive: 5.96%. Then `CN1CCCC(OC(=O)C(c2ccccc2)c2ccccc2)C1` (stereo not drawn), with inactive: 2.68%; and `COc1ccc(OP(C)(=O)Nc2ccccn2)cc1` (stereo not drawn), with inactive: 4.42%; and `COc1ccccc1OP(=O)(Nc1ccc(C)cn1)Oc1ccccc1OC`, with inactive: 3.45%.

Take `Cc1ccc(OP(=O)(Nc2nccs2)Oc2ccc(C)cc2)cc1`: the inhibition was inactive: 2.77%. As to `COc1ccccc1OP(C)(=O)Nc1ccc(Br)cc1` (stereo not drawn), the inhibition was inactive: 3.34%.

For `CN(C(=O)Cc1ccc(Cl)c(Cl)c1)[C@H]1CCCC[C@H]1N1CCCC1`, the inhibition was inactive: 2.63%.

On to `NC(=O)c1cc([N+](=O)[O-])cc([N+](=O)[O-])c1N`, for which the inhibition was inactive: 13.1%. Turning to `CP(=O)(Nc1ccc(Cl)cc1Cl)Oc1ccccc1` (stereo not drawn), the inhibition was inactive: 1.77%. For the compound `CC(C)N1C(=O)CC2(CCN(CCOC(=O)C(O)(c3ccccc3)c3ccccc3)CC2)C1=O`, the inhibition is inactive: 0.633%.

For the compound `CCN(N=Nc1nonc1N)c1nonc1N`, the inhibition is inactive: 9.55%. `COc1ccc(OP(C)(=O)Nc2ccccc2Br)cc1` (stereo not drawn): the inhibition was inactive: 1.57%. Consider `CC(C)=NN=C(N)N[N+](=O)[O-]`, for which the inhibition was inactive: 3.74%. With `CCOP(=O)(Nc1ccccc1)OCC`, the inhibition was inactive: 0.542%. `Cc1cc(SC(NC(=O)c2ccc(F)cc2)C(Cl)(Cl)Cl)ncn1` (stereo not drawn): the inhibition is inactive: -8.32%.

On to `CN(C(=O)Cc1ccc(Cl)c(Cl)c1)[C@H]1CCCC[C@@H]1N1CCCC1`, for which the inhibition was inactive: 6.03%. With `Cc1ccc(NP(=O)(Oc2ccccc2F)Oc2ccccc2F)nc1` the figure was inactive: -17.8%; with `COc1ccccc1OP(C)(=O)Nc1ccc(C)c(C)c1` (stereo not drawn), inactive: 1.44%. For the compound `O=C1C(O)=C([N+](=O)[O-])C(=O)C(O)=C1[N+](=O)[O-]`, the inhibition is inactive: 3.73%. In the case of `Cc1cc(C)cc(OP(C)(=O)Nc2cccc(C(F)(F)F)c2)c1` (stereo not drawn), the inhibition is inactive: 3.17%. In the case of `O=P(Nc1nc2ccc(Cl)cc2s1)(c1ccccc1)c1ccccc1`, the inhibition is inactive: 5.19%. With `O=C(O)c1ccccc1[As](=O)(O)O`, the inhibition is inactive: 1.73%. For `CC(=O)Nc1ccc([As](=O)(O)O)cc1`, the inhibition is inactive: -0.983%. With `CCN(CC)CC(C)C(C)OC(=O)C(O)(c1ccccc1)c1ccccc1` (stereo not drawn) the figure was inactive: 1.03%; with `CCCC1OP(N)(=O)OCC1CC` (stereo not drawn), inactive: 3.68%; with `O=C(O)CNc1ccc([As](=O)(O)O)cc1`, inactive: 1.85%.
